# According to patent US20210353613A1, “TREATMENT OF NEUROLOGICAL DISEASE” (Aclipse One Inc., priority 2018, published 2021):
# Tested on: mouse motor neuron (MN) survival
# Experiment: Co-culture of patient iAstrocytes with mouse Hb9-GFP motor neurons: MN survival
# Format: cell-based
# Settings: FIG. 4; 10uM; 3 days after administration; compared to vehicle (DMSO); sALS, SOD1, C9orf72 iAstrocytes
# Procedure: Induced astrocytes from control or ALS patients were used in a co-culture assay to determine their effect on mouse motor neuron (MN) survival. Mouse embryonic stem cell-derived motor neurons expressing green fluorescence protein (GFP) under the control of the HB9 promoter were sorted and added to iAstrocytes from patients and controls. […] The survival of mouse MNs was monitored on Day 1 and 3 with confocal image acquisition.
# The MN survival on Day 3 was evaluated as a percentage of survived MN cells observed on Day 1.
smiles,measurement,value
"Nc1nc2ccc(OC(F)(F)F)cc2s1 [riluzole, reference compound]",mouse Hb9GFP+ motor neuron rescue: percentage of motor neuron survival,increase in percentage of motor neuron survival
